Laboratory results as given in US8383386.

Biological target: prothrombin, P00734

B1: recombinant factor Xa variant Val17→Ala (protein)
chain 1: ANSFLEEMKKGHLERECMEETCSYEEAREVFEDSDKTNEFWNKYKDGDQCETSPCQNQGKCKDGLGEYTCTCLEGFEGKNCELFTRKLCSLDNGDCDQFCHEEQNSVVCSCARGYTLADNGKACIPTGPYPCGKQTLER
chain 2: IAGGQECKDGECPWQALLINEENEGFCGGTILSEFYILTAAHCLYQAKRFKVRVGDRNTEQEEGGEAVHEVEVVIKHNRFTKETYDFDIAVLRLKTPITFRMNVAPACLPERDWAESTLMTQKTGIVSGFGRTHEKGRQSTRLKMLEVPYVDRNSCKLSSSFIITQNMFCAGYDTKQEDACQGDSGGPHVTRFKDTYFVTGIVSWGEGCARKGKYGIYTKVTAFLKWIDRSMKTRGLPKAKSHAPEVITSSPLK
Km ± SD (µM), prothrombin cleavage by FXa assembled in prothrombinase: 0.47 µM
Vmax/Et ± SD (nM IIa/min/nM E), prothrombin cleavage (nM IIa/min/nM E): 887
Vmax/Et · Km (µM^-1 · s^-1), prothrombin cleavage: 3.1e+07 M⁻¹ s⁻¹
